Data published in patent US9994913B2, “Methods and compositions for detecting and treating drug resistant AKT mutant” (Genentech, Inc., priority 2013, dated 2018).

Assays:
LNCaP cells = experiment: Dose response of AKT inhibitors in parental and AKT-inhibitor-resistant LNCaP cells (FIGS. 1-2, 6); type: cell-based; conditions: LNCaP clones derived under increasing doses of GDC-0068
From the text: Resistant clones to both inhibitors were derived from populations of cancer cells treated with increasing doses of AKT inhibitor over time. For GDC-0068, cells that are ˜10× less sensitive were cloned. For MK2206, cells that are ˜40× less sensitive were cloned.
Akt inhibitor resistance in LNCaP cells remains dependent on the Akt pathway activity in cases of resistance to both GDC-0068 and MK-2206.
The in vitro potency of the combinations of the compound of Example 2 with certain specific chemotherapeutic agents was measured using the CellTiterGlo® Luminescent Cell Viability Assay, commercially available from Promega Corp., Madison, Wis. This homogeneous assay method is based on the recombinant expression of Coleoptera luciferase (U.S. Pat. Nos. 5,583,024; 5,674,713; 5,700,670) and determines the number of viable cells in culture based on quantitation of the ATP present, an indicator of metabolically active cells (Crouch et al (1993) J. Immunol. Meth. 160:81-88; U.S. Pat. No. 6,602,677). […]
The homogeneous “add-mix-measure” format results in cell lysis and generation of a luminescent signal proportional to the amount of ATP present. […] Viable cells are reflected in relative luminescence units (RLU). […] Data can be recorded by luminometer or CCD camera imaging device. The luminescence output is presented as relative light units (RLU), measured over time.

Akt = experiment: Western blot of AKT inhibitor dosed LNCaP cells, Akt phosphorylation and inhibitor binding (FIGS. 3-4); type: cell-based; conditions: GDC-0068 resistant LNCaP cells
From the text: FIGS. 3-4 show Western blot analysis of AKT inhibitor dosed to cancer cells (LNCaP cells).

CC(C)NC[C@@H](C(=O)N1CCN(c2ncnc3c2[C@H](C)C[C@H]3O)CC1)c1ccc(Cl)cc1 [GDC-0068, (S)-2-(4-chlorophenyl)-1-(4-((5R,7R)-7-hydroxy-5-methyl-6,7-dihydro-5H-cyclopenta [d]pyrimidin-4-yl)piperazin-1-yl)-3-(isopropylamino)propan-1-one]
fold less sensitive to GDC-0068, resistant clones vs parental (LNCaP cells): ~10 × | binding of the inhibitor in resistant cells (Akt): still bind to the inhibitor
